The test system of the assay is goat antibody against human serum albumin. In words: microELISA of electrospray-deposited protein antigens on IMMOBILON-P filter. The following applies: primary antibody against human serum albumin 1:1000, AP-labeled secondary antibody 1:3000. The assay is classed as binding. The protocol:
Different antigens (serum albumins from human and ox, ovalbumin and human hemoglobin) were electrospray deposited onto a wetted IMMOBILON-P membrane filter through a mask having multiple holes. After each deposition of a different protein antigen, the mask was shifted by 1.1 mm. After depositing all four protein antigens, the membrane filter was dried for 15 min. at 37° C. and blocked by soaking in a PBS solution (10 mM sodium phosphate buffer, pH 7.2, 0.9% NaCl) with 0.05% Tween-20, 1% chicken albumin (ovalbumin). After blocking, the membrane filter was soaked in a solution of a goat antibody against human serum albumin (Sigma, diluted 1:1000) for an hour. The filter was then washed twice with PBS buffer for 10 seconds and reacted with a solution of anti-goat IgG antibodies labeled with alkaline phosphatase (Sigma, diluted 1:3000). After washing off excess anti-goat antibodies with PBS, the position of the enzyme-labeled spot was identified by soaking the filter in a solution of an alkaline phosphatase substrate capable of producing an insoluble product as described in Example 3.

“human serum albumin: protein antigen electrospray deposited onto IMMOBILON-P filter”: the “spot intensity in microELISA” value was “the most intense”.

The values above are taken from patent US6350609B1, “Electrospraying for mass fabrication of chips and libraries” (New York University, priority 1997, dated 2002).
